# Measurements from article PMC7429263 (ACS infectious diseases, 2020).
# Where two headings read alike, the source gives them in different places.
# Key:
# [1] = tested on: VanA VRE E. faecium ATCC BAA-2317; assay type: cell-based
# [2] = tested on: MRSA S. aureus ATCC 43300; test: standard microdilution antimicrobial assay; assay type: cell-based
# [3] = tested on: Sensitive S. aureus ATCC 25923; test: standard microdilution antimicrobial assay; assay type: cell-based
# [4] = tested on: VanA VRE E. faecalis BM 4166
# [5] = tested on: VanA VRE E. faecalis BM 4166 and E. faecium ATCC BAA-2317; test: bacteria cell membrane permeability assay; conditions: 10 μM added at 5 min
# [6] = tested on: VanB E. faecalis ATCC 51299; test: standard microdilution antimicrobial assay; assay type: cell-based
# [7] = tested on: VanA VRE E. faecalis BM 4166 and E. faecium ATCC BAA-2317; test: microdilution antimicrobial assay with added LTA or other additives; assay type: cell-based; conditions: 100 μg/mL LTA
smiles,measurement,setting,value
CN[C@H](CC(C)C)C(=O)N[C@H]1C(=O)N[C@@H](CC(N)=O)C(=O)N[C@H]2C(=O)N[C@H]3C(=O)N[C@H](C(=O)N[C@H](C(=O)NCc4ccc(NC(=N)N)cc4)c4cc(O)cc(O)c4-c4cc3ccc4O)[C@H](O)c3ccc(c(Cl)c3)Oc3cc2cc(c3OC2OC(CO)C(O)[C@H](O)C2O[C@H]2CC(C)(NCc3ccc(-c4ccc(Cl)cc4)cc3)[C@H](O)[C@H](C)O2)Oc2ccc(cc2Cl)[C@H]1O (stereo partly drawn) [GBn-CBP-vancomycin (19)],MIC,"[1]; ATCC BAA-2317, +LTA 100 μg/mL",2.5 µg/mL
same,MIC,"[1]; ATCC BAA-2317, −LTA",0.3 µg/mL
same,MIC,[2],0.02 µg/mL
same,MIC,[3],0.04 µg/mL
same,MIC,"[4]; BM 4166, +LTA 100 μg/mL",5 µg/mL
same,MIC,"[4]; BM 4166, −LTA",0.6 µg/mL
same,"induced cell membrane permeabilization, in words",[5],strong membrane permeabilization
same,MIC,[6],0.04 µg/mL
same,decrease of antimicrobial activity with added LTA,[7],8 fold
